The source of these data is patent US20110274692A1 (published 2011).

In experiment [1] the target is IL-1β/XOMA 052 complex (human, UniProt P01584 117-269). The experiment in a line: KinExA equilibrium solution affinity, receptor titrated into IL-1β with 100-fold molar excess of XOMA 052. Background: Kinetic exclusion samples the free partner from a solution-phase mixture.
Experiment [2] addresses IL-1β (human, UniProt P01584 117-269). The experiment in a line: cell-based or functional assay.

In general, Kd refers to the equilibrium constant for the complex coming apart. Read a low Kd as a tighter complex.

B1: IL-1 sRI (receptor, UniProt P14778 18-336, looked up)
chain: LEADKCKEREEKIILVSSANEIDVRPCPLNPNEHKGTITWYKDDSKTPVSTEQASRIHQHKEKLWFVPAKVEDSGHYYCVVRNSSYCLRIKISAKFVENEPNLCYNAQAIFKQKLPVAGDGGLVCPYMEFFKNENNELPKLQWYKDCKPLLLDNIHFSGVKDRLIVMNVAEKHRGNYTCHASYTYLGKQYPITRVIEFITLEENKPTRPVIVSPANETMEVDLGSQIQLICNVTGQLSDIAYWKWNGSVIDEDDPVLGEDYYSVENPANKRRSTLITVLNISEIESRFYKHPFTCFAKNTHGIDAAYIQLIYPVTNFQK
notes: extracellular domain; bought; also called IL-IsRI; soluble IL-1 receptor type I
B1 yielded a Kd in experiment [1] of 10 nM.

B2: XOMA 052 (antibody, V domains shown)
VH: QVQLQESGPGLVKPSQTLSLTCSFSGFSLSTSGMGVGWIRQPSGKGLEWLAHIWWDGDESYNPSLKSRLTISKDTSKNQVSLKITSVTAADTAVYFCARNRYDPPWFVDWGQGTLVTVSS
VL: DIQMTQSTSSLSASVGDRVTITCRASQDISNYLSWYQQKPGKAVKLLIYYTSKLHSGVPSRFSGSGSGTDYTLTISSLQQEDFATYFCLQGKMLPWTFGQGTKLEIK
As to B2, in experiment [2], the “increase of the EC50 of the IL-1β dose response curve, MRC-5 cell IL-6 release assay, relative to isotype control antibody” value is ≤ 60 fold.

B3: IL-1 sRII (receptor, UniProt P27930 14-343, looked up)
chain: FTLQPAAHTGAARSCRFRGRHYKREFRLEGEPVALRCPQVPYWLWASVSPRINLTWHKNDSARTVPGEEETRMWAQDGALWLLPALQEDSGTYVCTTRNASYCDKMSIELRVFENTDAFLPFISYPQILTLSTSGVLVCPDLSEFTRDKTDVKIQWYKDSLLLDKDNEKFLSVRGTTHLLVHDVALEDAGYYRCVLTFAHEGQQYNITRSIELRIKKKKEETIPVIISPLKTISASLGSRLTIPCKVFLGTGTPLTTMLWWTANDTHIESAYPGGRVTEGPRQEYSENNENYIEVPLIFDPVTREDLHMDFKCVVHNTLSFQTLRTTVKE
notes: extracellular domain; bought; also called IL-1 sR11; IL-1RII
For B3, in experiment [1], the affinity, expressed as Kd, was 2 nM.
